Key:
EphA2 = EphA2 (Homo sapiens, UniProt P29317); test: Label-free Biolayer Interferometry (BLI) binding kinetics, EphA2
Protocol: (§1) In this example, the binding kinetics of xEFN_RBD2, xEFN_RBD3, and xEFN_RBD4 were assayed for binding and dissociation from EphA2, EphB2, and EphB3. Additionally, a known EphB2 targeting peptide sequence (SNEW) was tested concurrently. […]. Growth Factors. 2014 Dec; 32(6):236-46). […]. J Biol Chem. 2007 Dec. 14; 282(50):36505-13. Label-free Biolayer Interferometry (BLI) was used to determine binding kinetics for the assayed peptides. Binding kinetics were measured using a ForteBio Octet TX biolayer interferometry instrument (Molecular Devices ForteBio LLC, Fremont, CA) according to manufacturer instructions. Binding response was recorded and specific signal was normalized by subtracting background control from the dataset. Data analysis was performed with Octet Data Analysis HT 10.0 software. BLI was used to assay kinetic binding constants (Ka, Kd) and equilibrium binding constants (affinity, Ka=1/Kd). Response was measured as a nm shift in the interference pattern and is proportional to the number of molecules bound to the surface of the biosensor. Response was plotted in sensorgrams for the 4 test peptides with binding kinetics toward 3 Eph receptors: FIG. 23A for EphA2, FIG. 23B for EphB2, and FIG. 23C for EphB3. Response was plotted on the y-axis and time was plotted on the x-axis. […].

Sequences of proteins named here, by UniProt entry; tags and fusion partners are left off. Residues count along the entry.
UniProt P29317, 24-976, species assumed: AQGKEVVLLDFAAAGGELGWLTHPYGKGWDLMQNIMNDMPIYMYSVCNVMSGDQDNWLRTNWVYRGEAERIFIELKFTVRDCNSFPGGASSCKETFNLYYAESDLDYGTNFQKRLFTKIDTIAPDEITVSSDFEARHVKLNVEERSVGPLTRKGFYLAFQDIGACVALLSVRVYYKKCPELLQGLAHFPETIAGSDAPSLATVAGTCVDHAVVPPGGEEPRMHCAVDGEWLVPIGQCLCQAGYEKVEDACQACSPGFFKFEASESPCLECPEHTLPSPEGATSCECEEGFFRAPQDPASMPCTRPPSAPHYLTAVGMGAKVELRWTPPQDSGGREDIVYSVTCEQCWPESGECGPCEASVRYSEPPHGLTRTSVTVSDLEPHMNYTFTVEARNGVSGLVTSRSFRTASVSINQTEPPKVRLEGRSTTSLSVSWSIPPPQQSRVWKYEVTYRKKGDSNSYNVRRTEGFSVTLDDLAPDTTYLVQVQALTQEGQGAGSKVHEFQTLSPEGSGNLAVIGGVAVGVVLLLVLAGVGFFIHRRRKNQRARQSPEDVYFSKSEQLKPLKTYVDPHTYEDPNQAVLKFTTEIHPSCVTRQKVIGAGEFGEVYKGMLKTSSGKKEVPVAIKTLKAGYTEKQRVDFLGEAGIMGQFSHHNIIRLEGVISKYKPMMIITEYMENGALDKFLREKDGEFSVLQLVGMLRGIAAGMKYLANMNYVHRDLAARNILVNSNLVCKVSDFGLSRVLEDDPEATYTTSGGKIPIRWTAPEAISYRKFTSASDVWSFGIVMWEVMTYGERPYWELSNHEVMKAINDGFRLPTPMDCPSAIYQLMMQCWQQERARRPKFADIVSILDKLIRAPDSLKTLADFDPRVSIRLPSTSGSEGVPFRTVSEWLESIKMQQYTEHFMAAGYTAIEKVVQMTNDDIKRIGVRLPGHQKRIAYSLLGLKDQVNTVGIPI

EphB2 = EphB2 (Homo sapiens, UniProt P29323); test: Label-free Biolayer Interferometry (BLI) binding kinetics, EphB2
EphB3 = biological target: T1, EphB3 (Homo sapiens, UniProt P54753); test: Label-free Biolayer Interferometry (BLI) binding kinetics, EphB3
T1 sequence (P54753 34-998): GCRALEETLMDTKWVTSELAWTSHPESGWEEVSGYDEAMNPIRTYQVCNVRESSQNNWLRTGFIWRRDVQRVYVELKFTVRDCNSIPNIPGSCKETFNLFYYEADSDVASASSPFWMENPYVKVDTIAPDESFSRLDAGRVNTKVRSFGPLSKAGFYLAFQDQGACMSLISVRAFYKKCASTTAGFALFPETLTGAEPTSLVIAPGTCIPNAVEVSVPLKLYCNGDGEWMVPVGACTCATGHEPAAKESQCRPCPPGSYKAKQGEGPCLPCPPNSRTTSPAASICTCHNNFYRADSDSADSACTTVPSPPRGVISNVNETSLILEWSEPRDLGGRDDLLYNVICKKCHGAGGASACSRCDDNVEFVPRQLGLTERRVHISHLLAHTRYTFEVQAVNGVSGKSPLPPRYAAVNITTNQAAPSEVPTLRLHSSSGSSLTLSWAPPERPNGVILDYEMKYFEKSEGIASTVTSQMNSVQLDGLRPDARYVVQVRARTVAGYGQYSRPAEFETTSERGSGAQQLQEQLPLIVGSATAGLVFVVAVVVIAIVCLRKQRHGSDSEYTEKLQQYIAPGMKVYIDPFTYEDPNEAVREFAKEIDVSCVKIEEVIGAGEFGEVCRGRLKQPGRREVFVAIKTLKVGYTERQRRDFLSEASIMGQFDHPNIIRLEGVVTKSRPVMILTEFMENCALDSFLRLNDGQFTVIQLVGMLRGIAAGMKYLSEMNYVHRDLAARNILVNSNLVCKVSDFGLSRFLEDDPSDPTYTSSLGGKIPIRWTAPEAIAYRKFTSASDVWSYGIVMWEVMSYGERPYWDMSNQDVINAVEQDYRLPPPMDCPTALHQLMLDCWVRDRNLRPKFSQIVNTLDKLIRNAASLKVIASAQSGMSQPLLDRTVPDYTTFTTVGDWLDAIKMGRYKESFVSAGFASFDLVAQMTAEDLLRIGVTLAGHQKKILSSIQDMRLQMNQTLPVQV
Protocol: as §1

EphB2 to ephrinB1 = biological target: T2, EphB2 to ephrinB1 (Homo sapiens, UniProt P29323); test: In vitro binding assay, percent binding of EphB2 to ephrinB1; settings: EphB2 50 ng/ml and 200 ng/mL
T2 sequence (P29323 19-543 limits assumed): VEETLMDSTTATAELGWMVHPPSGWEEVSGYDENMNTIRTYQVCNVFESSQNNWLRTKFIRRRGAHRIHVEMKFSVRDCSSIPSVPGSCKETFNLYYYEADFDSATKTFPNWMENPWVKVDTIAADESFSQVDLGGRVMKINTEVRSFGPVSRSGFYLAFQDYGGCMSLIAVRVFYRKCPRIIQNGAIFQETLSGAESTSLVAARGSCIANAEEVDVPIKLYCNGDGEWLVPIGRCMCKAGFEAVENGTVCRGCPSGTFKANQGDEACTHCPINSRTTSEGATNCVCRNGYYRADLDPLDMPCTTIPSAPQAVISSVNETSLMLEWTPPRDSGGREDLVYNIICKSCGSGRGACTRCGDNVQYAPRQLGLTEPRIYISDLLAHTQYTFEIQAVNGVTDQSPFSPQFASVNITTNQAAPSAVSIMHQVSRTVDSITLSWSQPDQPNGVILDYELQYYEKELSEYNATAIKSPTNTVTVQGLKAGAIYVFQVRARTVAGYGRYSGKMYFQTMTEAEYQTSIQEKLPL
From the text: EphB2 (PDB: 2QBX) is a synthetic construct described in Chrencik J E et al. 2007. […] Key molecular interactions between xEFN_RBD3 and the EphB2 ligand binding pocket (LBP) are shown in the diagram of FIG. 24B and listed in Table 2 below. In Table 2, under interaction type, H-bond refers to a hydrogen bond and ionic refers to an ionic bond.

isolated mouse RGCs = test: Neurite outgrowth, long-term (6 days), Incucyte Zoom live cell imaging; assay type: cell-based; settings: 1 μM, end of 6-day period
Protocol: Mouse retinal ganglion cells (RGC): Mouse R GCs were isolated as follows. Briefly, retinas from postnatal day 8-10 (p8-10) mouse pups were dissected and digested using a papain solution (16.5 U/mL) for 30 minutes at 37° C. Following dissociation, macrophage and endothelial cells were removed from the cell suspension by panning with the anti-macrophage antiserum (Accurate Chemical, Westbury, NY). Finally, RGCs were immunopanned in plates containing the antibody against Thy1.2 and were then released by incubation with trypsin solution. RGCs were grown on poly-L-lysine coated plates in serum-free Neurobasal media (Invitrogen, Carlsbad, CA), supplemented with B-27 supplement, CNTF (10 ng/ml), and BDNF (10 ng/ml).
mRGCs were used to analyze dendrite sprouting, axonal polarization and extension, and ephrin receptor phosphorylation following treatment with xEFN peptides. RGCs were isolated as described above and plated onto 24 well plates at a concentration of 4×10^4 cells/well for short-term (48 h) experiments, or into 96-well plates at a concentration of 1,000 cells/well for long-term (6 days) experiments in an Incucyte Zoom (Essen Biosciences) instrument for live cell imaging. […] Neurite sprouting and extension were quantified using the automated Incucyte Zoom NeuroTrack Processing algorithm for real-time, label-free neurite segmentation and quantitation (FIG. 13).

Row | Sequence | binding to EphA2 (BLI, fitted dissociation constant) (EphA2) | binding to EphB2 (BLI, fitted dissociation constant) (EphB2) | binding to EphB3 (BLI, fitted dissociation constant) (EphB3) | percent binding of EphB2 to ephrinB1 in the presence of increasing peptide concentration (EphB2 to ephrinB1) | increase in overall neurite length over day 0 measurement (isolated mouse RGCs)
1 | FTIKFQEFSPNLWGL [xEFN_RBD3] | strong binding | strong binding | strong binding | competitive antagonist action | 
2 | SNEWIQPRLPQH [published EphB2 targeting peptide, reference compound] |  |  |  |  | 145.31+/−18.48%
